Laboratory results reported in patent US11202833B2, “Methylglyoxal-scavenging cyclic peptides and their use for the prevention and treatment of diseases associated with elevated methylglyoxal levels” (RUPRECHT-KARLS-UNIVERSITÄT HEIDELBERG, priority 2016, dated 2021).

Test: MG scavenging in vitro (MG half-life by HPLC)

Q: Which “MG scavenging (in words)” value does the source give for CN(C)C(=N)N=C(N)N [Met, metformin] here?
A: Its value is “slow”.
